The values below are quoted from earlier work in patent US20110312513A1, “BIOMARKERS FOR PREDICTING SUSTAINED RESPONSE TO HCV TREATMENT” (ROCHE MOLECULAR SYSTEMS, INC., priority 2009, published 2011).

The conditions of the data set: human, in vivo; cited from earlier work.

Turning to `NC(=O)c1ncn([C@@H]2O[C@H](CO)[C@@H](O)[C@H]2O)n1` [ribavirin, 1-((2R,3R,4S,5R)-3,4-Dihydroxy-5-hydroxymethyl-tetrahydro-furan-2-yl)-1H-[1,2,4]triazole-3-carboxylic acid amide], the toxicity entry was “significant toxicity and is known to induce anemia”.
